Molecular target: the molecule itself
Assay: cryo-EM structure

B1: CXCR7 (atypical chemokine receptor 3), full-length construct with N-terminal FLAG-tag (receptor)
chain: MDLHLFDYSEPGNFSDISWPCNSSDCIVVDTVMCPNMPNKSVLLYTLSFIYIFIFVIGMIANSVVVWVNIQAKTTGYDTHCYILNLAIADLWVVLTIPVWVVSLVQHNQWPMGELTCKVTHLIFSINLFGSIFFLTCMSVDRYLSITYFTNTPSSRKKMVRRVVCILVWLLAFCVSLPDTYYLKTVTSASNNETYCRSFYPEHSIKEWLIGMELVSVVLGFAVPFSIIAVFYFLLARAISASSDQEKHSSRKIIFSYVVVFLVCWLPYHVAVLLDIFSILHYIPFTCRLEHALFTALHVTQCLSLVHCCVNPVLYSFINRNYRYELMKAFIFKYSAKTGLTKLIDASRVSETEYSALEQSTK
modifications: free cysteines alkylated with iodoacetamide
stoichiometry N: 2
